Results on two substances are retold here after PMC6831611, “Proof-of-Concept Study of Drug Brain Permeability Between in Vivo Human Brain and an in Vitro iPSCs-Human Blood-Brain Barrier Model” (Scientific Reports, 2019).

Read-outs that look alike come from different tables or passages of the source. Some results are limits rather than exact numbers.

The subject of one data set is human brain (BBB). The settings on record: PET, cited from earlier work; for K1, rate constant for transfer from arterial plasma into brain: human brain.
The subject of data set [1] is ABC transporters in the in vitro primary rat cell based BBB model.
Data set [2] deals with ABC transporters (P-gp) in the iPSC-hBBB model.
Another data set deals with iPSC-hBBB monolayer. The experiment in a line: Apparent permeability (Papp A to B) across the in vitro iPSC-hBBB model. As to conditions: PappAB.

As to 2F-A85380-tartrate [fluoro-A85380], the “K1, rate constant for transfer from arterial plasma into brain” value with human brain (BBB) is 0.11 mL.cm-3.min-1. Moreover, the “efflux ratio (ER)” value in data set [1] is on record as not below 1.25. Moreover, in data set [2], the “ABC transporter substrate / interaction (in words)” value is on record as “likely to be also ABC transporter substrates” and the “PappBA/PappAB efflux ratio (ER)” value is not below 1.25.

Regarding buprenorphine, the “K1, rate constant for transfer from arterial plasma into brain” value in the data set with human brain (BBB) (ref unpublished data) was 0.17 mL.cm-3.min-1. Further, in the data set on human brain (BBB) (in vivo, human, ref S1 Table 1), the “cerebral uptake / brain distribution in human brain (in words)” value is “high cerebral uptake”. Besides, in the data set with iPSC-hBBB monolayer, the “in vitro permeability across the iPSC-hBBB model (in words)” value was “high permeability in only the iPSC-hBBB model”.
